Laboratory results as given in ChEMBL document CHEMBL1145929, “Syntheses and binding studies of new [(aryl)(aryloxy)methyl]piperidine derivatives and related compounds as potential antidepressant drugs with high affinity for serotonin (5-HT) and norepinephrine (NE) transporters” (J Med Chem, 2003).

Amino acid sequences for entries named in this document (tags omitted).
UniProt P23977, whole entry: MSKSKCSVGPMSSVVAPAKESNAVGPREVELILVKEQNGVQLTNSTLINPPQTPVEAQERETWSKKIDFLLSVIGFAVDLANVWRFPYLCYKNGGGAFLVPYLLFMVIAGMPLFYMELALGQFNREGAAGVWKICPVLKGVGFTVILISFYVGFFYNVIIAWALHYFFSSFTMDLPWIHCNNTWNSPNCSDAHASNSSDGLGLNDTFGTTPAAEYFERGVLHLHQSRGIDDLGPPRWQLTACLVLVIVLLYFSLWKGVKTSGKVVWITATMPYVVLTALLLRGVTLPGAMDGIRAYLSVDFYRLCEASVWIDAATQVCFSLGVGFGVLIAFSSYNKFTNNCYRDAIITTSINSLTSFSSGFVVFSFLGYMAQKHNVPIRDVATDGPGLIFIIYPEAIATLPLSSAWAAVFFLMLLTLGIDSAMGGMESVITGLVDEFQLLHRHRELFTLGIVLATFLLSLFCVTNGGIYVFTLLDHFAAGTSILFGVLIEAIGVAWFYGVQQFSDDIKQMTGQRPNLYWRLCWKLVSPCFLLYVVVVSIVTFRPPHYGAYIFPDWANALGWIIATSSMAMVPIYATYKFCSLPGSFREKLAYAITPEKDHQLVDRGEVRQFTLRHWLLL
UniProt P31652, whole entry: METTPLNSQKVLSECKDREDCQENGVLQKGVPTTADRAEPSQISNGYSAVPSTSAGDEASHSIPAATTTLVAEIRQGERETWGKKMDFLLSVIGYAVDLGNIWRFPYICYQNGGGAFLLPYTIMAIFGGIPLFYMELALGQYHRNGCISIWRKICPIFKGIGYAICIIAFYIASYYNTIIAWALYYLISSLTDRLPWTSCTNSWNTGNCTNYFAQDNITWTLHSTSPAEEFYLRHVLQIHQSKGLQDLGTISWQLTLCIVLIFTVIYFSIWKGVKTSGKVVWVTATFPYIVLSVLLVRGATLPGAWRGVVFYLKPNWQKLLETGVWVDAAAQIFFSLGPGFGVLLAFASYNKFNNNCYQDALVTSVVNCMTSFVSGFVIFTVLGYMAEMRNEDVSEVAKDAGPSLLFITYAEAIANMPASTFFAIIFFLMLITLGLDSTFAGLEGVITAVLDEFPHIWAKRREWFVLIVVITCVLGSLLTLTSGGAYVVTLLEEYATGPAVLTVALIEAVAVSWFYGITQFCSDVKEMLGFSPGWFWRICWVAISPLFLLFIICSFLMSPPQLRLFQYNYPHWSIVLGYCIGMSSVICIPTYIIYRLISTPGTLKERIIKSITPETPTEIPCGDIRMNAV

What was measured:
[1] = target: Sodium-dependent dopamine transporter (Rattus norvegicus, UniProt P23977); test: Binding affinity against dopamine transporter (DAT) by displacement of [3H]WIN-35428 in male wistar rats
[2] = target: Sodium-dependent serotonin transporter (Rattus norvegicus, UniProt P31652); test: Binding affinity against serotonin transporter (SERT) by displacement of [3H]paroxetine in male wistar rats

IC50 [1] [µM] | IC50 [2] [µM] | SMILES
> 1 |  | Fc1ccc([C@@H]2CCNC[C@H]2COc2ccc3c(c2)OCO3)cc1 [PAROXETINE]
> 0.5 | > 0.5 | CNCCC(Oc1ccccc1OC)c1ccccc1 (stereo not drawn) [NISOXETINE]
